The record followed here is US20050004011A1, “Compositions and methods for treating bacterial infections with protein-dalbavancin complexes” (priority 2002, published 2005).

For the test, the system named is N,N′-diacetyl-Lys-D-Ala-D-Ala. As to the kind of experiment: ITC of binding to tri-peptide, with and without HSA. The settings on record: for Kd: read-out: Kdiss.

Read-outs that look alike come from different tables or passages of the source.

As to `CN[C@H]1C(=O)N[C@@H]2Cc3ccc(cc3)Oc3cc4cc(c3O[C@@H]3O[C@H](C(=O)O)[C@@H](O)[C@H](O)[C@H]3NC(=O)CCCCCCCCC(C)C)Oc3ccc(cc3Cl)[C@@H](O)[C@@H]3NC(=O)[C@H](NC(=O)[C@@H]4NC(=O)[C@@H](NC2=O)c2cc(cc(O)c2Cl)Oc2cc1ccc2O)c1ccc(O)c(c1)-c1c(O[C@H]2O[C@H](CO)[C@@H](O)[C@H](O)[C@@H]2O)cc(O)cc1[C@@H](C(=O)NCCCN(C)C)NC3=O` [Dalbavancin], the Kass was 21800 M⁻¹ (T 25 ° C., [HSA] 601 μM) and 12500 M⁻¹ (T 37 ° C., [HSA] 482 μM). Further, the Kd runs as follows: (T 25 ° C., [HSA] 601 μM) 45.9 µM; (T 37 ° C., [HSA] 482 μM) 80 µM.
